Data as given in patent US20090215650A1, “SUBSTRATES WITH STABLE SURFACE CHEMISTRY FOR BIOLOGICAL MEMBRANE ARRAYS AND METHOD FOR FABRICATING THEREOF” (priority 2002, published 2009).

Test: Stability of lipid arrays with or without BSA on drawing through water/air interface
Conditions: buffer with 0.1% BSA vs buffer only; drawn 5 times through water/air interface, rinsing, drying
Procedure: Lipid microarrays were generated using either a contact printing technique (e.g., quill pin) or manual spotting on a slide surface, and incubated in a humid chamber at room temperature. Afterwards, the lipid microarrays were covered by buffer with or without generic proteins (between ˜0.01% and ˜1%), and incubated for ten minutes. The lipid arrays were then rinsed with buffer to remove unbound proteins.
To evaluate the stability of the lipid arrays, the printed slides were drawn through a water/air interface several times, and then imaged in a fluorescence microscope or a scanner. To evaluate the functionality of lipid/protein arrays, fluorescent dye-labeled probe molecules were introduced into the solution, followed by rinsing to remove unbound molecules, drying, and imaging.
Arrays of lipids containing either 1% (mol) Texas Red-DHPE or 2% biotin-x-DHPE were printed onto bare glass slides, Corning GAPS slides and Brij-MHA-gold surfaces. On each slide there were two 4×4 arrays. One array was covered with buffer containing 0.1% BSA, while the second array was covered with buffer in the absence of BSA. After 10 minutes these slides were drawn through the water/air interface 5 times. […] After drawing the slides through the interface, the lipid arrays were covered again by buffer and further examined in a fluorescence microscope or scanner.

## bovine serum albumin [BSA]
  stability of lipid arrays: significantly increases the stability of lipid arrays; also recorded: protects the lipid arrays from being removed from the surfaces

Entries after “also recorded” stand apart in the source; their conditions may differ.
